Reference: ChEMBL document CHEMBL4400547 (J Med Chem, 2019)

System: HEK293
Assay: cells
Conditions: Homo sapiens

For `CC(C)c1nc(-c2ccc(NC(=O)Nc3cccc(C(F)(F)F)c3)c3ccccc23)c2c(N)nccn12`, the EC50 was > 49 µM.
